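Each compound was tested at five concentrations against cells in 96-well plates for 48 hours. At the GI50, growth is halved. TGI: total growth inhibition.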
What was measured:
Test in all cases: growth of human tumour cells (NCI), 48 h; in the data active = GI50 below about 0.43 µM; inactive = the rest
U251 CNS = system: U251 CNS
SK-MEL-5 melanoma = system: SK-MEL-5 melanoma
UACC-257 melanoma = system: UACC-257 melanoma
HS 578T breast = system: HS 578T breast
SK-MEL-28 melanoma = system: SK-MEL-28 melanoma
HL-60(TB) leukemia = system: HL-60(TB) leukemia
CCRF-CEM leukemia = system: CCRF-CEM leukemia
NCI-H23 lung = system: NCI-H23 lung
ACHN renal = system: ACHN renal
MALME-3M melanoma = system: MALME-3M melanoma
HOP-92 NSCLC = system: HOP-92 NSCLC
T-47D breast = system: T-47D breast
HT29 colon = system: HT29 colon
OVCAR-5 ovarian = system: OVCAR-5 ovarian
UO-31 renal = system: UO-31 renal
MDA-MB-231 breast = system: MDA-MB-231 breast
SK-MEL-2 melanoma = system: SK-MEL-2 melanoma
SNB-75 CNS = system: SNB-75 CNS
IGROV1 ovarian = system: IGROV1 ovarian
NCI-H322M lung = system: NCI-H322M lung
KM12 colon = system: KM12 colon
TK-10 renal = system: TK-10 renal
SN12C renal = system: SN12C renal
HCT-15 colon = system: HCT-15 colon
SF-539 CNS = system: SF-539 CNS
K-562 leukemia = system: K-562 leukemia
A549 NSCLC = system: A549 NSCLC
RXF 393 renal = system: RXF 393 renal
SK-OV-3 ovarian = system: SK-OV-3 ovarian
PC-3 prostate = system: PC-3 prostate
SNB-19 CNS = system: SNB-19 CNS
HCC-2998 colon = system: HCC-2998 colon
M14 melanoma = system: M14 melanoma
UACC-62 melanoma = system: UACC-62 melanoma
LOX IMVI melanoma = system: LOX IMVI melanoma
786-0 renal = system: 786-0 renal
OVCAR-3 ovarian = system: OVCAR-3 ovarian
OVCAR-8 ovarian = system: OVCAR-8 ovarian
CAKI-1 renal = system: CAKI-1 renal
A498 renal = system: A498 renal
NCI/ADR-RES ovarian = system: NCI/ADR-RES ovarian
DU-145 prostate = system: DU-145 prostate
BT-549 breast = system: BT-549 breast
SF-268 CNS = system: SF-268 CNS
RPMI-8226 leukemia = system: RPMI-8226 leukemia
HOP-62 NSCLC = system: HOP-62 NSCLC
OVCAR-4 ovarian = system: OVCAR-4 ovarian
MOLT-4 leukemia = system: MOLT-4 leukemia
NCI-H460 lung = system: NCI-H460 lung
SW-620 colon = system: SW-620 colon
NCI-H226 lung = system: NCI-H226 lung
EKVX NSCLC = system: EKVX NSCLC
HCT-116 colon = system: HCT-116 colon
SF-295 CNS = system: SF-295 CNS
COLO 205 colon = system: COLO 205 colon
NCI-H522 lung = system: NCI-H522 lung
MDA-MB-435 = system: MDA-MB-435
MCF7 breast = system: MCF7 breast

O=[N+]([O-])c1ccc(Nc2ccc(Oc3ccc([N+](=O)[O-])cc3[N+](=O)[O-])cc2)c([N+](=O)[O-])c1
32.4 µM: TGI (HOP-92 NSCLC)
40.9 µM: TGI (HS 578T breast)
42.8 µM: TGI (SF-295 CNS)
58.8 µM: TGI (A498 renal)
37.4 µM: TGI (SF-539 CNS) | TGI (OVCAR-3 ovarian)
inactive: GI50 (U251 CNS) 24.3 µM | GI50 (SK-MEL-5 melanoma) 21.6 µM | GI50 (UACC-257 melanoma) 21.5 µM | GI50 (HS 578T breast) 9.91 µM | GI50 (SK-MEL-28 melanoma) 19.1 µM | GI50 (HL-60(TB) leukemia) > 100 µM | GI50 (CCRF-CEM leukemia) > 100 µM | GI50 (NCI-H23 lung) 20.3 µM | GI50 (ACHN renal) 16 µM | GI50 (MALME-3M melanoma) 15 µM | GI50 (HOP-92 NSCLC) 10.7 µM | GI50 (T-47D breast) 17.2 µM | GI50 (HT29 colon) 82.1 µM | GI50 (OVCAR-5 ovarian) 49.5 µM | GI50 (UO-31 renal) 3.57 µM | GI50 (MDA-MB-231 breast) 16.1 µM | GI50 (SK-MEL-2 melanoma) 15.2 µM | GI50 (SNB-75 CNS) 11.7 µM | GI50 (IGROV1 ovarian) 21 µM | GI50 (NCI-H322M lung) 30.2 µM | GI50 (KM12 colon) 18.9 µM | GI50 (TK-10 renal) 17.8 µM | GI50 (SN12C renal) 22.9 µM | GI50 (HCT-15 colon) 61.3 µM | GI50 (SF-539 CNS) 14.8 µM | GI50 (K-562 leukemia) 5.52 µM | GI50 (A549 NSCLC) 24 µM | GI50 (RXF 393 renal) 6.89 µM | GI50 (SK-OV-3 ovarian) 12.6 µM | GI50 (PC-3 prostate) 13.2 µM | GI50 (SNB-19 CNS) 24 µM | GI50 (HCC-2998 colon) 53.8 µM | GI50 (M14 melanoma) 35.1 µM | GI50 (UACC-62 melanoma) 13 µM | GI50 (LOX IMVI melanoma) 20.3 µM | GI50 (786-0 renal) 35.4 µM | GI50 (OVCAR-3 ovarian) 15.9 µM | GI50 (OVCAR-8 ovarian) 16.2 µM | GI50 (CAKI-1 renal) 24 µM | GI50 (A498 renal) 16 µM | GI50 (NCI/ADR-RES ovarian) 15.3 µM | GI50 (DU-145 prostate) 16.8 µM | GI50 (BT-549 breast) 18.5 µM | GI50 (SF-268 CNS) 13.2 µM | GI50 (RPMI-8226 leukemia) 7.6 µM | GI50 (HOP-62 NSCLC) 13.6 µM | GI50 (OVCAR-4 ovarian) 10.6 µM | GI50 (MOLT-4 leukemia) > 100 µM | GI50 (NCI-H460 lung) 40.5 µM | GI50 (SW-620 colon) 18.1 µM | GI50 (NCI-H226 lung) 17 µM | GI50 (EKVX NSCLC) 30.5 µM | GI50 (HCT-116 colon) 28.1 µM | GI50 (SF-295 CNS) 16.3 µM | GI50 (COLO 205 colon) 63.8 µM | GI50 (NCI-H522 lung) 12.4 µM | GI50 (MDA-MB-435) 10.8 µM | GI50 (MCF7 breast) 23 µM
31.9 µM: TGI (HOP-62 NSCLC)
48.7 µM: TGI (DU-145 prostate)
47.2 µM: TGI (SK-MEL-2 melanoma)
37.9 µM: TGI (UACC-62 melanoma) | TGI (SF-268 CNS)
65.7 µM: TGI (MDA-MB-231 breast)
88.9 µM: TGI (OVCAR-8 ovarian)
33.4 µM: TGI (SNB-75 CNS)
95.1 µM: TGI (ACHN renal)
> 100 µM: TGI (U251 CNS) | TGI (SK-MEL-5 melanoma) | TGI (UACC-257 melanoma) | TGI (HL-60(TB) leukemia) | TGI (CCRF-CEM leukemia) | TGI (NCI-H23 lung) | TGI (T-47D breast) | TGI (HT29 colon) | TGI (OVCAR-5 ovarian) | TGI (IGROV1 ovarian) | TGI (NCI-H322M lung) | TGI (KM12 colon) | TGI (SN12C renal) | TGI (HCT-15 colon) | TGI (K-562 leukemia) | TGI (A549 NSCLC) | TGI (HCC-2998 colon) | TGI (M14 melanoma) | TGI (LOX IMVI melanoma) | TGI (786-0 renal) | TGI (CAKI-1 renal) | TGI (NCI/ADR-RES ovarian) | TGI (RPMI-8226 leukemia) | TGI (MOLT-4 leukemia) | TGI (NCI-H460 lung) | TGI (SW-620 colon) | TGI (EKVX NSCLC) | TGI (HCT-116 colon) | TGI (COLO 205 colon) | TGI (NCI-H522 lung) | TGI (MDA-MB-435) | TGI (MCF7 breast)
30.7 µM: TGI (OVCAR-4 ovarian)
41.6 µM: TGI (SK-OV-3 ovarian)
42.2 µM: TGI (TK-10 renal)
91.5 µM: TGI (SNB-19 CNS)
37.8 µM: TGI (PC-3 prostate)
56.5 µM: TGI (MALME-3M melanoma)
49.5 µM: TGI (NCI-H226 lung)
30 µM: TGI (RXF 393 renal)
57.3 µM: TGI (UO-31 renal)
82.4 µM: TGI (BT-549 breast)
57.8 µM: TGI (SK-MEL-28 melanoma)

Reference: PubChem BioAssay (NCI)
